We go through one compound from PMC6148296 (Scientific Reports, 2018).

Chains of the proteins cited; added tags and fusions are not shown.
UniProt P33535, whole entry: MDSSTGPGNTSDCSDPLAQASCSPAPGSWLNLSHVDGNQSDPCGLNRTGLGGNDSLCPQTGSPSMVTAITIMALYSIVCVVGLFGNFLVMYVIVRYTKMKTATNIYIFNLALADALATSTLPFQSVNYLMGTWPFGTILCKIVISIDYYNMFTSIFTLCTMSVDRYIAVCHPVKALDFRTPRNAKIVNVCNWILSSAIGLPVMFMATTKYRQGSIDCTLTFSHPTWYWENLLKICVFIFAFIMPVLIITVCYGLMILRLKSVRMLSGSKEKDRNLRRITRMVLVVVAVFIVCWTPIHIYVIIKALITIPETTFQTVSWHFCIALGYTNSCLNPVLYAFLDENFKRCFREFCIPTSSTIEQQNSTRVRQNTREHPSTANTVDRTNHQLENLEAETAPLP

Assay [1] deals with T1, rat μ-opioid receptor (Rattus norvegicus, UniProt P33535).
T1 construct: expressed in transfected cells; membranes prepared
Description: [35S]GTPγS binding assay, MOR. Type of assay: biochemical. To be noted: 0.1 nM [35S]GTPγS; read-out: Agonist activity MOR EC50. A general note: GTPγS resists hydrolysis and so accumulates on activated G proteins.

The target of assay [2] is T1, rat μ-opioid receptor. Kind of assay: Receptor binding assay, [3H]DAMGO competition. To be noted: CHO cell membranes, 2.0 nM [3H]DAMGO; read-out: µ binding affinity Ki.

As to `C[C@@H](NC(=O)[C@@H](N)Cc1ccc(O)cc1)C(=O)NCC(=O)N(C)[C@@H](Cc1ccccc1)C(=O)NCCO` [DAMGO, [D-Ala2,N-Me-Phe4,Gly5-ol]-enkephalin], the EC50 (usually the midpoint of the concentration-response curve) in assay [1] worked out at 16.1 ± 0.3 nM. In addition, in assay [2], the Ki (commonly the equilibrium dissociation constant of an inhibitor or competing ligand from its target) stood at 2.3 ± 0.02 nM.
